Results taken from ChEMBL document CHEMBL3875218, “Bifunctional conjugates with potent inhibitory activity towards cyclooxygenase and histone deacetylase” (Bioorg Med Chem, 2017).

Test: cells
Type: functional, cell-based
Settings: Homo sapiens, LNCaP, 72 h

IC50: 32.6 µM
Compound: Cc1ccc(-c2cc(C(F)(F)F)nn2-c2ccc(S(N)(=O)=O)cc2)cc1 [CELECOXIB]
